Measurements taken from patent publication EP0116431B1, “Aromatase inhibiting pyrimidine derivatives” (ELI LILLY AND COMPANY, priority 1983, dated 1984).
Where two headings read alike, the source gives them in different places.

Tested on: synthesis of estrogens
Settings: ovaries, seven days
[1] = 30 ppm in feed (approximately 3 mg/kg/day)
[2] = 300 ppm in feed (approximately 30 mg/kg/day)

Structure (SMILES) | Mean Steroid Concentration estradiol [1] | Mean Steroid Concentration estriol [1] | Mean Steroid Concentration estrone [1] | Mean Steroid Concentration estradiol [2] | Mean Steroid Concentration estriol [2] | Mean Steroid Concentration estrone [2]
Clc1ccc(C(c2ccc(Cl)cc2)c2cncnc2)cc1 [compound 27, 5-bis(4-chlorophenyl)methylpyrimidine] | 0.14^+ femtomoles per milligram of protein | 0.59 femtomoles per milligram of protein | 0.14 femtomoles per milligram of protein | 0.15^+ femtomoles per milligram of protein | 0.29 femtomoles per milligram of protein | 0.12 femtomoles per milligram of protein
OC(c1ccc(Cl)cc1)(c1ccc(Cl)cc1)c1cncnc1 [compound 29, α,α-bis(4-chlorophenyl)-5-pyrimidinemethanol] | 0.31^+ femtomoles per milligram of protein | 1.24 femtomoles per milligram of protein | 0.34 femtomoles per milligram of protein | 0.14^+ femtomoles per milligram of protein | 2.74 femtomoles per milligram of protein | 0.70 femtomoles per milligram of protein
